The subject of series [1] is conditioned avoidance response in rats. Nature of the series: animal or person. The class given is in vivo. As to conditions: Rattus norvegicus, po, 1 h, read-out: Rat CAR ED50 (mg/kg). The protocol:
[…] of SD rats, male.
Firstly, training the rats with shuttle box:
(1) The rats were allowed for adaption for five minutes;
(2) Conditioned stimulus (CS, light and noise) were started and lasted for 20 s, and at the tenth second, unconditioned stimulus (US, 1.5 mA electric shock) was performed and lasted for 10 s;
(3) Training was conducted 30 times per day for 9 days. The interval between two trainings was set randomly ranged from 20 to 30 s;
(4) Observation indicators:
The animal ran to another compartment during the conditioning stimulus was recorded as “avoidance”;
Animals ran to another compartment during the electric shock was recorded as “escape”;
Grouping of the qualified rats: the qualified rats were divided into negative control group, positive drug groups of each dosage, and compound groups of each dosage according to the principle of randomization, 8 in each group.
CAR Assay: A CAR assay was performed 1 hour after intragastric administration. The method was the same as the CAR training. The observation indicators were the number of avoidances, the number of escapes, and the number of escape failures.
Statistical Data Processing: Assay data are presented as mean±standard deviation (Mean±SD), the comparison was performed by a combination of one-way ANOVA with post-hoc LSD. The ED50 was calculated using the probit method.

A short description of the next series: in vivo. As to conditions: both, Kunming, mouse, po.
For series [2], the system named is MK-801 induced high activity in mice. The series is described as follows: MK-801 induced high activity.

For `Cc1nc2n(c(=O)c1CCN1CCC(c3noc4cc(F)ccc34)CC1)CCCC2` [risperidone, reference compound], the ED50 in series [1] was 0.66 mg/kg; in the series “in vivo”, 0.97 mg/kg.
With `CN1CCc2ccc(OCCCN3CCC(c4noc5cc(F)ccc45)CC3)cc2C1=O` [Compound 5, 7-(3-(4-(6-fluorobenzo[d]isoxazol-3-yl)piperidin-1-yl)propoxy)-2-methyl-3,4-dihydroisoquinolin-1(2H)-one], the ED50 in series [2] (Mus musculus, po, read-out: MK-801 induced high activity (ED50, po, mg/kg)) stood at 0.04 mg/kg. Moreover, in series [2] (mice, compared with risperidone), the “improvement of MK-801 induced high activity (in words)” value is on record as “significantly improve”.

Values taken from patent publication US10501452B2, “Lactam compound derivative and application thereof” (NHWA PHARMA. CORPORATION, priority 2015, dated 2019).
